Assay: Aqueous solubility of crystalline salts of Q702 (slurried overnight in deionised water, HPLC)
Conditions: crystalline salts slurried overnight in deionised water (pH = 6.8), solution pH measured
In the case of CCCn1cc(OCC(F)(F)F)c(C(=O)Nc2ccc(Oc3ccnc4cc(OC)c(OC)cc34)cn2)n1.O=S(=O)(O)CCS(=O)(=O)O [Edisylate], the pH of solution is reported as 2.31.
CCCn1cc(OCC(F)(F)F)c(C(=O)Nc2ccc(Oc3ccnc4cc(OC)c(OC)cc34)cn2)n1.O=C(O)CC(=O)O [Malonate] gave a pH of solution of 3.38.
CCCn1cc(OCC(F)(F)F)c(C(=O)Nc2ccc(Oc3ccnc4cc(OC)c(OC)cc34)cn2)n1.O=C(O)C(=O)O [Oxalate] gave a pH of solution of 3.04.
Molecule CCCn1cc(OCC(F)(F)F)c(C(=O)Nc2ccc(Oc3ccnc4cc(OC)c(OC)cc34)cn2)n1.O=P(O)(O)O [Phosphate] has a pH of solution of 2.53.
In the case of CCCn1cc(OCC(F)(F)F)c(C(=O)Nc2ccc(Oc3ccnc4cc(OC)c(OC)cc34)cn2)n1.Cl [Q702 HCl salt, N-(5-((6,7-dimethoxyquinolin-4-yl)oxy)pyridin-2-yl)-1-propyl-4-(2,2,2-trifluoroethoxy)-1H-pyrazole-3-carboxamide hydrochloride], the pH of solution is reported as 2.68.

Assay: not given
Conditions: pH 6.8
For O=C(O)CCC(=O)C(=O)O [Ketoglutarate], the “Aq Solub” value was 1.93 ± 0.04 mg/mL.
